Like-named read-outs stand apart in the source and are kept apart here.
Target: T1, CB2 receptor (Mus musculus, UniProt P47936)
T1 construct: membranes were prepared from frozen mouse spleen; from tissue; host or cells: frozen mouse spleen membranes
Assay: CB2 receptor binding, mouse spleen membranes, [3H]CP-55,940 displacement
Procedure: The prepared cannabinoid compounds were tested for CB2 receptor binding affinity and for CB1 receptor affinity (to determine selectivity for the CB2 receptor). As used herein, “binding affinity” is represented by the IC50 value which is the concentration of an analog required to occupy the 50% of the total number (Bmax) of the receptors. The lower the IC50 value, the higher the binding affinity. […] The binding affinities (Ki) are expressed in nanomoles (nM).
The treated membranes were subsequently used in the binding assay described below. Approximately 30 μg of membranes were incubated in silanized 96-well microtiter plate with TME containing 0.1% essentially fatty acid-free bovine serum albumin (BSA), 0.8 nM [^3H] CP-55,940, and various concentrations of test materials at 30° C. for 1 hour. The samples were immediately filtered using a Packard Filtermate 196 and Whatman GF/C filterplates and washed with wash buffer (TME) containing 0.5% BSA. Radioactivity was detected using MicroScint 20 scintillation cocktail added directly to the dried filterplates, and the filterplates were counted using a Packard Instruments Top-Count. Nonspecific binding was assessed using 100 nM CP-55,940. Data collected from three independent experiments performed with duplicate determinations was normalized between 100% and 0% specific binding for [^3H] CP-55,940, determined using buffer and 100 nM CP-55,940.The normalized data was analyzed using a 4-parameter nonlinear logistic equation to yield IC50 values. Data from at least two independent experiments performed in duplicate was used to calculate IC50 values which were converted to Ki values using the using the assumptions of Cheng et al; “Relationship Between the Inhibition Constant (Ki) and the concentration of Inhibitor which causes 50% Inhibition (IC50) of an Enzymatic Reaction”, Biochem. Pharmacol., 22, 3099–3102, (1 973), which is incorporated by reference herein.
For the CB2 receptor binding studies, membranes were prepared from frozen mouse spleen essentially according to the procedure of P. R. Dodd et al; “A Rapid Method for Preparing Synaptosomes: Comparison with Alternative Procedures”, Brain Res., 226, 107–118 (1981) which is incorporated by reference herein. Silanized centrifuge tubes were used throughout to minimize receptor loss due to adsorption. The CB2 binding assay was conducted in the same manner as the CB1 binding assay. The binding affinities (Ki) were also expressed in nanomoles (nM).

The chains behind the UniProt entries cited, without tags or fusion partners. Where a name states a change or a piece, a line headed by the entry shows the natural chain unless it says otherwise.
UniProt P47936: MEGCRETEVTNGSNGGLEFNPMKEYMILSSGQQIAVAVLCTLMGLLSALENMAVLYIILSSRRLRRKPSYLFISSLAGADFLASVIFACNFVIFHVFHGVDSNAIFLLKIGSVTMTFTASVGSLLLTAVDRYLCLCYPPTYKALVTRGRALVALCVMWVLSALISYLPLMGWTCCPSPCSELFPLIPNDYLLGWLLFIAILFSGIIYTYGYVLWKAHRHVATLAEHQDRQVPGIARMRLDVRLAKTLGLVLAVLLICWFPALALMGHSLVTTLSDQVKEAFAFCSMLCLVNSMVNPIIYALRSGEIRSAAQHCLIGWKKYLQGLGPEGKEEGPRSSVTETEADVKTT

## CN1CCCC[C@@H]1Cn1cc(C(=O)c2ccccc2I)c2ccccc21 [2-24(R)]
Ki nM CB2, Table 1
  Ki: 2.1 nM

## CN1CCCC[C@H]1Cn1cc(C(=O)c2ccccc2I)c2ccccc21 [2-24(S)]
Table 1, read-out: Ki nM CB2
  Ki: 583 nM

## CN1CCCC[C@@H]1Cn1cc(C(=O)c2ccccc2I)c2ccccc21 [2-34(R)]
Ki nM CB2, Table 2
  Ki: 1.56 nM

## CN1CCCCC1Cn1cc(C(=O)c2ccccc2I)c2ccccc21 (racemic) [2-34(R,S)]
Table 2, read-out: Ki nM CB2
  Ki: 3.34 nM

## CN1CCCC[C@H]1Cn1cc(C(=O)c2ccccc2I)c2ccccc21 [2-34(S)]
Ki nM CB2, Table 2
  Ki: 6.79 nM

From patent US7173027B2, “Receptor selective cannabimimetic aminoalkylindoles” (University of Connecticut, priority 2001, dated 2007)
